Molecular target: T1, mouse MDM2 (Mus musculus, UniProt P23804)
T1 construct: gene PCR-cloned from mouse prostate cell line
Experiment: ELISA of MDM2 binding to immobilised biotinylated p53 peptides (peptide library, alanine and conserved substitution series)
Settings: 15-mer biotinylated peptides on streptavidin ELISA plates; SF9 insect cell extract expressing mouse MDM2; detection with 4B2

Amino acid sequences for entries named in this document (tags omitted).
UniProt P23804, whole entry: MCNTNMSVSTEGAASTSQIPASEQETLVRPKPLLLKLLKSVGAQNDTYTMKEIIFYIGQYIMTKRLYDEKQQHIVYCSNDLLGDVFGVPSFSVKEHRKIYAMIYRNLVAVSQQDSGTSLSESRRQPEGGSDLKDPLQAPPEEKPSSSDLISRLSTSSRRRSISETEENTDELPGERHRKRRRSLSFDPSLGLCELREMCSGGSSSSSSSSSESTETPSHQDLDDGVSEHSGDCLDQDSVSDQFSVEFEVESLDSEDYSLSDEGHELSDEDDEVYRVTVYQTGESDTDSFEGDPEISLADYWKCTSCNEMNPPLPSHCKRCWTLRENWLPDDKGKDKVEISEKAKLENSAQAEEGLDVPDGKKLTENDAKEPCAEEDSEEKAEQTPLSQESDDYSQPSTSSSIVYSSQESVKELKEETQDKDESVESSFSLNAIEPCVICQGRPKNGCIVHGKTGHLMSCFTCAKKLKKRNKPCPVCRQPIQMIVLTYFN

For QETFSDLWKLLPENN [Peptide 6], the “binding of MDM2 to p53 library peptide” value was “bind MDM2”.

Reference: patent US6153391A, “Interruption of binding of MDM2 and P53 protein and therapeutic application thereof” (University of Dundee, priority 1998, dated 2000)
